The record followed here is patent US8729097B2, “Quinoline compounds as inhibitors of angiogenesis, human methionine aminopeptidase, and SIRT1, and methods of treating disorders” (The Johns Hopkins University, priority 2008, dated 2014).

The test system of experiment [1] is HUVEC. Description: Endothelial cell tube formation assay. As to conditions: Matrigel; EX527 1 μM, TNP470 10 nM.
Experiment [2] concerns acetylation of p53 (K382), α-tubulin and histone-H3. Description: Acetylation status of sirtuin substrates in HUVEC (Western blot).
The test system of experiment [3] is HUVEC. Put plainly: Senescence associated-β-galactosidase (SA-β-gal) staining in HUVEC. As to conditions: 5 days, single compound or drug combination.

For the compound `NC(=O)C1CCCc2c1[nH]c1ccc(Cl)cc21` (stereo not shown), in the experiment with HUVEC [1], the HUVEC tube formation entry is “inhibited the tube formation”. In addition, the “acetylation of p53-K382, single agent” value in experiment [2] is “slightly induced acetylation of p53-K382”. Moreover, the “acetylation of tubulin and histone-H3 in the presence of TSA” value in experiment [2] (with TSA (200 nM), 24 h, nitroxoline 20 μM) is listed as “did not increase acetylation of tubulin or histone-H3”. Also, in the experiment on HUVEC [3], the “premature senescence in HUVEC” value is “induced premature senescence”.
